The source of these data is patent US11091451B2, “SHMT inhibitors and uses thereof” (Raze Therapeutics, Inc., priority 2016, dated 2021).

Sequences of proteins named here, by UniProt entry; tags and fusion partners are left off. Residues count along the entry.
UniProt P34897, 30-504 limits assumed: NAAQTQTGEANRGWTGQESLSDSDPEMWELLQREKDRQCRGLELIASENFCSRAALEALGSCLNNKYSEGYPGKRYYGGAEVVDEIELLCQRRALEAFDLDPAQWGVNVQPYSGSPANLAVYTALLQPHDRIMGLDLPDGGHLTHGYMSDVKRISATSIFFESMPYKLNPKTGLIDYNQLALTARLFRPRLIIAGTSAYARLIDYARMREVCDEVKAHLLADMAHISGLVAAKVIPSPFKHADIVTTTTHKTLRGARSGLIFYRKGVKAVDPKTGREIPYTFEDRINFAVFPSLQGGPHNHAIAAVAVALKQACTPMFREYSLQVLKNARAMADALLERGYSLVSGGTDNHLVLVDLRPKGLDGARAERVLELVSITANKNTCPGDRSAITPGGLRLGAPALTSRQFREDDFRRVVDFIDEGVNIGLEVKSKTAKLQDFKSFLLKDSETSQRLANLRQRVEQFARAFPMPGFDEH
UniProt P34896, whole entry: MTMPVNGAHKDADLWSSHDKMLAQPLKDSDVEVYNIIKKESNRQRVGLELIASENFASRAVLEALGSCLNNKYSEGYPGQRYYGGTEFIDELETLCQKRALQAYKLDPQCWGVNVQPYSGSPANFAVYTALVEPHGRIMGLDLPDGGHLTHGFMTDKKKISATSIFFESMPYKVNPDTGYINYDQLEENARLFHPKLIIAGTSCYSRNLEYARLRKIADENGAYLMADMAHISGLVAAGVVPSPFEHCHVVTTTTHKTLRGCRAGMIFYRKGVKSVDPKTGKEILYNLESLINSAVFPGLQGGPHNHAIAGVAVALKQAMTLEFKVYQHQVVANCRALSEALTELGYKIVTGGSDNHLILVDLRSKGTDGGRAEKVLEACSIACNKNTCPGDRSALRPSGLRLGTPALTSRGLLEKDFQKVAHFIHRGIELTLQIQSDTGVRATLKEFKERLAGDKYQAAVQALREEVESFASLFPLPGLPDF

For test [1], the target named is Human mitochondrial SHMT2 (Homo sapiens (Human), UniProt P34897). As to the kind of experiment: SHMT2 activity inhibition assay (serine production from glycine and CH2-THF, mass spectroscopy). The following applies: read-out: SHMT2 IC50; 60 minutes at room temperature.
Test [2] has as its target human cytosolic Serine Hydroxymethyl transferase 1 (SHMT1) (Homo sapiens (Human), UniProt P34896). As to the kind of experiment: SHMT1 activity inhibition assay (serine production from glycine and CH2-THF, mass spectroscopy). The conditions noted are these: read-out: SHMT1 IC50; 60 minutes at room temperature. The text has this:
Full length human cytosolic Serine Hydroxymethyl transferase 1 (SHMT1, residues 1-483 in Uniport ID P34896) was expressed as an N-terminal His6 tagged protein and purified in E. coli using nickel capture followed by size-exclusion chromatography. Human mitochondrial SHMT2 (residues 30-504 in Uniprot ID P34897) with mitochondrial leader sequence deleted was expressed as an N-terminal His6 tagged protein and purified in E. coli using nickel capture followed by size-exclusion chromatography.
Serine hydroxymethyltransferases catalyze the reversible hydroxymethylation of glycine to serine, with methylene tetrahydrofolate (CH2-THF) providing the additional carbon. SHMT1 and SHMT2 activity was determined by measuring serine production from glycine and CH2-THF using mass spectroscopy. Briefly, 15 ul of 0.5 mM glycine and 0.2 mM CH2-THF in 20 mM TEA, pH8.0, 0.2 mM NADPH were added to 384 well plate containing 0, 0.05 mM, 0.005 mM or 0.0005 mM of inhibitor. 15 ul of SHMT1 or 2 were added to initiate the reaction. The plate was incubated for 60 minutes at room temperature and the reaction was quenched by the addition of 30 ul of 10% trichloroacetic acid. Serine produced was analyzed using Rapidfire 360 and API4000^+ in the positive ion mode.

The term IC50 denotes the point on the concentration scale where inhibition reaches its midpoint. `C[C@H](NC(=O)Cc1csc(-c2ccc(OC(F)(F)F)cc2)n1)C(=O)O`: the 50% inhibitory concentration (IC50) fell in the range of 10 to 100 µM in test [1] and 100 to 500 µM in test [2].
